Measured values reported in patent publication US8268635B2, “Methods of identifying agents that selectively activate p38 and/or NKkB signaling” (priority 2006, dated 2012).

Columns and labels:
Type in all cases: cell-based, human
ERK1/ERK2 = ERK1/ERK2 dual phosphorylation in HUVEC (western blot); conditions: 15 min; TNF 100 U/ml, TNF70-80 10 μM
Method: (§1) The cells were lysed, and JNK activity was assayed using GST-jun (1-79) as a substrate. The data is presented as means+−sem of 3 experiments. […] The cells were lysed and the level of dual-phosphorylated ERK1/ERK2 was assessed by western blot analysis using the anti-ACTIVE ERK antibody (top panel). The blot was stripped and re-probed with an anti-ERK2 antibody (lower panel) to compare the level of ERK2 protein. The results are representative of 3 experiments, each conducted with cells from a different cord. […] The level of myelin basic protein phosphorylation was quantitated by an Instant Imager. Results are presented as the means+−sem of 3 experiments. Statistical analysis: significant difference between control and stimulated cells, *p<0.05.
Fresh human umbilical cords were obtained from consenting mothers according to the institution's guidelines on human ethics. […]
The cells were lysed in 200 μl of buffer A (20 mM HEPES, pH 7.4, 0.5% (v/v) Nonidet P-40, 100 mM NaCl, 1 mM EDTA, 2 mM Na3VO4, 2 mM dithiotbreitol, 1 mM phenylmethylsulfonyl fluoride, and 10 μg/ml leupeptin, aprotonin, pepstatin A, and benzamidine) for 2 h at 4° C. with constant mixing (20) After centrifugation (12,000 g×5 min), the supernatants were collected and the protein content of the lysates was determined by Lowry's method of protein determination. […]

p38 = p38 activity in HUVEC (immunoprecipitation, myelin basic protein substrate); conditions: 5 min; TNF 1,000 U/ml, peptides 10 μM
Method: as §1, with “*p<0.05. […]” for “*p<0.05.”
(§2) KHS (hereon referred to as “GCKR”) activity was assayed as described previously using myelin basic protein as a substrate (Shi, C. S., Leonardi, A., Kyriakis, J., Siebenlist, U., and Kerhl, J. H. (1999) J. Immunol. 163: 3279-3285). ASK-1 activation was determined in immunoprecipitates of ASK-1 by autophosphorylation (Kyriakis, J. M., and Auruch, J. (2001) Physiol. Rev. 81: 807-869). p38 and ERK activities were determined as described using myelin basic protein as a substrate (Hii, C. S., Huang, Z. H., Bilney, A., Costabile, M., Murray, A. W., Rathjen, D. A., Der, C. J., and Ferrante, A. (1998) J. Biol. Chem. 273: 19277-19282). […]

JNK = JNK activity in adherent neutrophils
Method: ERK activation was determined by assessing the level of ERK1/ERK2 dual phosphorylation (a) or by kinase activity assay (b) after immunoprecipitation. JNK activity was assayed as described under Experimental using GST-jun (1-79) as the substrate (c). (a) Immunoblot probed with anti-ACTIVE ERK antibody (top panel), stripped, and re-probed with anti-ERK2 antibody (bottom panel). (b) The data is presented as the means+−sem of 3 experiments. […] Significance of difference between control and stimulated cells: *p<0.05. […]
as §2

TNF: Human recombinant TNF produced by Genentech, Inc.
dual phosphorylation of the ERKs in HUVEC (ERK1/ERK2): stimulated the dual phosphorylation of the ERKs
activity of p38 in HUVEC (p38): stimulated the activity of p38
activity of JNK in adherent neutrophils (JNK; neutrophils pre-adhered to plasma-coated dishes, 15 min, TNF 1000 U/ml, TNF70-80 10 μM): stimulated the activity of JNK
JNK activity in neutrophils pre-adhered to non-coated surfaces (JNK; non-coated surfaces, data not shown): failed to stimulate the activity of either GCKR or JNK
